{"source": "ChEMBL document CHEMBL1131427", "about": "“Synthesis of imidazo[1,2-a]pyridines as antiviral agents” (J Med Chem, 1998)", "test": "Ratio of Cytotoxicity concentration to that of virus-inhibitory concentration.", "format": "functional", "procedure,_shortened": "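Selectivity index is the 50% cytotoxic concentration in HEL cells divided by the 50% inhibitory concentration against CMV strain AD-169 in HEL cells.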"}
{"smiles": "Nc1nc2c(ncn2COC(CO)CO)c(=O)[nH]1", "note": "[GANCICLOVIR]", "values": [{"measurement": "Selectivity index", "result": ">200"}]}
